{"sequences": {"note": "Amino acid sequences for entries named in this document (tags omitted). A change or cut given only in a name is not applied to a line headed by its entry.", "UniProt P00592": "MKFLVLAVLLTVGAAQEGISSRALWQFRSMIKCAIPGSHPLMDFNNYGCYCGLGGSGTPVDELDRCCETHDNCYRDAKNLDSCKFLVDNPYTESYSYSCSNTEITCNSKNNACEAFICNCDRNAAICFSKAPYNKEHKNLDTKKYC"}, "source": "ChEMBL document CHEMBL1129058", "about": "“Indole inhibitors of human nonpancreatic secretory phospholipase A2. 2. Indole-3-acetamides with additional functionality” (J Med Chem, 1996)", "target": "Phospholipase A2, major isoenzyme (Sus scrofa, UniProt P00592)", "test": "Compound was tested for the inhibitory activity against porcine pancreatic PLA2", "note": "pIC50: −log10 of the molar value.", "data": [{"compound": "Cc1c(CC(N)=O)c2c(OCCCC(=O)O)cccc2n1Cc1ccccc1", "values": [{"measurement": "pIC50", "result": 6.21}]}]}
